The results in this text go back to PubChem BioAssay AID1259423 (Fisher Drug Discovery Resource Center, 2018).

“And” between values parts separate entries of the source, which are not always exact repeats. Equal entries are not always repeated. The entries are a selection whose mix differs from that of the whole data set. Some structures show a salt or complex split into parts, the way the source records it. The source made the active and inactive calls. No stated cut-off is given here; in the data, active means activation above about 40%; inactive means the rest, inconclusive results apart.

In this experiment the test system is Aedes aegypti neuropeptide Y-like receptor 7 (NPYLR7). In words: agonists of mosquito NPYLR7 receptor, primary screen, cell-based, Aedes aegypti, calcium fluorescence, mosquito biting behavior (AID 1259423).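 Further: 0% = vehicle and 100% = reference agonist at the receptor.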 The note with it: HEK293T NPYLR7/Galpha15, GCaMP6s calcium fluorescence; at 10 µM; hits give high values.
Take `CP(=O)(O)OC(c1ccccc1)C(F)(F)C(F)(F)F` (stereo not given): the activation was inactive: 2.39%.

`Cc1cc(C)cc(OP(C)(=O)Nc2cc(Cl)ccc2C)c1` (stereo not given): the activation is inactive: 7.88%.

Turning to `CP(N)(=O)Oc1ccccc1F` (stereo not given), the activation was inactive: -2.79%.

As for `CN1CC(=O)N(C)P1(C)=S` (stereo not given), the activation was inactive: 1.31%.

With `O=[N+]([O-])C1([N+](=O)[O-])COCOC1`, the activation is inactive: 36%.

With `CN([N+](=O)[O-])C(Br)([N+](=O)[O-])[N+](=O)[O-]`, the activation was inactive: -11.7%.

With `Cc1ccc(NP(C)(=O)Oc2ccc(Cl)cc2)cc1` (stereo not given), the activation was inactive: -5.9%.

For the compound `Cn1cc([N+](=O)[O-])nc1[N+](=O)[O-]`, the activation is inactive: -2.03%.

Take `CP(=O)(Nc1cccc(F)c1)Oc1ccc(Cl)cc1` (stereo not given): the activation is inactive: 1.42%.

Turning to `CP(=O)(Nc1ccc(Cl)cc1Cl)Oc1ccccc1` (stereo not given), the activation is inactive: 5.1%.

On to `CP(=O)(Nc1ccc(F)cc1)Oc1ccc(Cl)cc1` (stereo not given), for which the activation was inactive: 2.87%.

For the compound `OCCSCCO`, the activation is inactive: -13.1%.

Take `COc1ccc(OP(C)(=O)Nc2ccc(Br)cc2)cc1` (stereo not given): the activation was inactive: 1.42%.

As to `COc1cccc(C(OP(C)(=O)O)C(F)(F)F)c1` (stereo not given), the activation is inactive: 6.09%.

`CP(=O)(Oc1ccc(F)cc1)OC(c1ccccc1)C(F)(F)F` (stereo not given): the activation was inactive: 1.75%.

For the compound `CC(C)(C)c1ccc(OP(C)(=O)O)cc1`, the activation was inactive: 5.91%.

Take `CCCCOc1ccc(NP(C)(=O)Oc2ccc(CC)cc2)cc1` (stereo not given): the activation is inactive: 2.72%.

On to `CP(=O)(O)OC(c1ccccc1)C(F)(F)F` (stereo not given), for which the activation is inactive: 7.43%.

Take `Nc1nonc1N=Nc1nonc1N`: the activation was inactive: 2.03%.

`CP(=O)(Nc1ccccc1Br)Oc1ccccc1` (stereo not given): the activation was inactive: 6.9% and inactive: -0.332%.

Turning to `CP(=O)(O)OC(c1cccc(Cl)c1)C(F)(F)F` (stereo not given), the activation was inactive: -3.72%.

Turning to `CP(=O)(Oc1ccccc1)OC(c1ccccc1)C(F)(F)F` (stereo not given), the activation was inactive: 6.98%.

Turning to `COC(=O)NC(c1ccccc1)P(=O)(Cl)Cl` (stereo not given), the activation was inactive: 4.05%.

As for `CN(C)CCS`, the activation was inactive: -13.3%.

As to `CCOP(C)(=S)SCN(CC(=O)O)C(=O)OC` (stereo not given), the activation is inactive: 3.26%.

As for `Cc1cccc(C)c1OP(C)(N)=O` (stereo not given), the activation is inactive: 7.88%.

With `CP(=O)(Nc1ccc(Br)cc1)Oc1ccccc1` (stereo not given), the activation is inactive: 168%.

With `CC(C)(C)c1ccc(OP(C)(N)=O)cc1` (stereo not given), the activation was inactive: 4.39%.

On to `COc1ccc(OP(C)(=O)Nc2cccc(F)c2)cc1` (stereo not given), for which the activation was inactive: 2.04%.

Regarding `Cc1cc(C)cc(OP(C)(N)=O)c1` (stereo not given), the activation was inactive: 6.36%.

Regarding `CCN(C1=NCCCS1)P(O)(=S)CC` (stereo not given), the activation is inactive: -6.42%.

On to `CP(=O)(O)OC(c1cccc(C(F)(F)F)c1)C(F)(F)F` (stereo not given), for which the activation was inactive: -1.47%.

As for `Cc1ccc(NP(C)(=O)Oc2ccc(C(C)(C)C)cc2)cc1` (stereo not given), the activation was inactive: 3.04%.

With `Cc1ccc(NP(C)(=O)Oc2ccc(C(C)C)cc2)cc1C` (stereo not given), the activation is inactive: 2.42%.

On to `CC(=O)N(CCN(C(C)=O)[N+](=O)[O-])[N+](=O)[O-]`, for which the activation is inactive: -8.83%.

Take `C/C1=C2N=C(/C=C3N=C(/C(C)=C4\[N-]C(C)(C5N=C1C(C)(CCC(=O)NCC(C)OP(=O)(O)OC1C(CO)OC(n6cnc7cc(C)c(C)cc76)C1O)C5CC(N)=O)C(C)(CC(N)=O)C4CCC(N)=O)C(C)(CC(N)=O)C\3CCC(N)=O)C(C)(C)C/2CCC(N)=O.[C-]#N.[Co+3]` (stereo not given): the activation is inactive: -5%.

`CP(=O)(Nc1ccc(Br)cc1)Oc1ccc(Cl)cc1` (stereo not given): the activation was inactive: 6.36%.

In the case of `Cc1ccc(Cl)cc1NP(C)(=O)Oc1ccccc1` (stereo not given), the activation is inactive: -6.73%.

Turning to `COc1ccc(OP(C)(=O)Nc2ccc(Cl)cc2)cc1` (stereo not given), the activation was inactive: 4.57%.

Turning to `Nc1cc([N+](=O)[O-])cc([N+](=O)[O-])c1O`, the activation is inactive: -2.27%.
